One experiment has as its target T1, CRF1R (Homo sapiens, UniProt P34998).
T1 sequence (P34998 24-415): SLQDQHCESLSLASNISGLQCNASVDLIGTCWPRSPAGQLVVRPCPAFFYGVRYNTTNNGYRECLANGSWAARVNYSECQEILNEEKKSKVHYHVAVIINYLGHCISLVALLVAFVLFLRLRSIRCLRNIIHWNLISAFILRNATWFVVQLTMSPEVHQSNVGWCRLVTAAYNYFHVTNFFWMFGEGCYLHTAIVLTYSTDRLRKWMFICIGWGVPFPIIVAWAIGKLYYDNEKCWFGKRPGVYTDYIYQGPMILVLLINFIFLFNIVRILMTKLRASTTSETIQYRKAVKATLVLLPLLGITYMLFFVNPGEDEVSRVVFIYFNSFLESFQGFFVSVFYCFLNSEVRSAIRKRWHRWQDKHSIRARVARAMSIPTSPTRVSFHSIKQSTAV
Nature of the experiment: CRF1R agonist activation (EC50 / Emax), called comparative CRF binding. The experiment is classed as cell-based. The conditions noted are these: for Emax: read-out: CRF1R Emax; for EC50: CRF1R EC50. The essentials:
(§1)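 Receptor-expressing cells are contacted with test peptide or the vehicle it is dissolved in. Lysates are then assayed for cAMP, or expression of a CRE-coupled reporter is quantitated. Engineered cells carrying receptor-G-protein fusions may replace full-length receptors.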

The next experiment concerns the target T2, CRF2R (Homo sapiens, UniProt Q13324).
T2 sequence (Q13324 1-411): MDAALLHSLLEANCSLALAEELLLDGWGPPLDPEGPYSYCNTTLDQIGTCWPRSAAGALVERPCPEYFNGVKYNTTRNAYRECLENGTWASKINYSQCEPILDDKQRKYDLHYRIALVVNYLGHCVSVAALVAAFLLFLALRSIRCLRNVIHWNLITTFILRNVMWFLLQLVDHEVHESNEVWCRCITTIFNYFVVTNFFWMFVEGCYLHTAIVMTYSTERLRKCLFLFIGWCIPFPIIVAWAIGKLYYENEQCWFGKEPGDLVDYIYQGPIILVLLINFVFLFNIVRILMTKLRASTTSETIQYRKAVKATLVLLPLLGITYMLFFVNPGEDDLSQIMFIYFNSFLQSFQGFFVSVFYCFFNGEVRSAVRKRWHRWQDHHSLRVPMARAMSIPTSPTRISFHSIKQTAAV
Nature of the experiment: CRF2R agonist activation (EC50 / Emax), called comparative CRF binding. The settings on record: for Emax: read-out: CRF2R Emax. The format is cell-based. The essentials:
as §1

Take `CC[C@H](C)[C@H](NC(=O)[C@@H](NC(=O)[C@H](CC(=O)O)NC(=O)[C@H](CC(C)C)NC(=O)[C@H](CC(C)C)NC(=O)[C@H](CC(C)C)NC(=O)[C@H](CCCNC(=N)N)NC(=O)[C@H](CC(N)=O)NC(=O)[C@H](CC(N)=O)NC(=O)[C@H](C)NC(=O)[C@H](C)NC(=O)[C@H](CCC(N)=O)NC(=O)[C@H](CCC(N)=O)NC(=O)[C@H](CCCCN)NC(=O)[C@H](CCC(=O)O)NC(=O)[C@H](CCCCN)NC(=O)[C@H](CCC(=O)O)NC(=O)[C@H](CCC(N)=O)NC(=O)[C@H](CCCCN)NC(=O)[C@H](CCC(=O)O)NC(=O)[C@@H](NC(=O)[C@H](CCC(=O)O)NC(=O)[C@@H](NC(=O)[C@H](CCSC)NC(=O)[C@H](CCCCN)NC(=O)[C@H](CCCNC(=N)N)NC(=O)[C@H](CC(C)C)NC(=O)[C@H](CC(C)C)NC(=O)[C@H](CC(=O)O)NC(=O)[C@@H](NC(=O)[C@@H]1CCCN1C(=O)[C@H](CC(C)C)NC(=O)[C@H](CC(=O)O)NC(=O)[C@@H](NC(=O)[C@H](CO)NC(=O)[C@@H](NC(=O)[C@@H]1CCCN1C(=O)[C@@H]1CCCN1C(=O)CNC(=O)[C@@H]1CCC(=O)N1)[C@@H](C)CC)[C@@H](C)CC)[C@@H](C)CC)[C@@H](C)CC)[C@@H](C)CC)[C@@H](C)O)C(N)=O` [compound 28]: the Emax on CRF1R stood at 2%; on CRF2R, 15%.

In the case of `CC[C@H](C)[C@H](NC(=O)[C@@H](NC(=O)[C@H](C)NC(=O)[C@H](CC(C)C)NC(=O)[C@H](CC(C)C)NC(=O)[C@H](CC(C)C)NC(=O)[C@H](C)NC(=O)[C@H](CC(N)=O)NC(=O)[C@H](CC(N)=O)NC(=O)[C@H](C)NC(=O)[C@H](C)NC(=O)[C@H](CCC(N)=O)NC(=O)[C@H](CCC(N)=O)NC(=O)[C@H](CCCCN)NC(=O)[C@H](CCC(=O)O)NC(=O)[C@H](CCCCN)NC(=O)[C@H](CCC(=O)O)NC(=O)[C@H](CCC(N)=O)NC(=O)[C@H](CCCCN)NC(=O)[C@H](CCC(=O)O)NC(=O)[C@@H](NC(=O)[C@H](CCC(=O)O)NC(=O)[C@@H](NC(=O)[C@H](CC(C)C)NC(=O)[C@@H](NC(=O)[C@H](CCCNC(=N)N)NC(=O)[C@H](CC(C)C)NC(=O)[C@H](CC(C)C)NC(=O)[C@H](CCC(N)=O)NC(=O)[C@H](Cc1ccccc1)NC(=O)[C@@H]1CCCN1C(=O)[C@H](CC(C)C)NC(=O)[C@H](CC(=O)O)NC(=O)[C@@H](NC(=O)[C@H](CO)NC(=O)[C@@H](NC(=O)[C@@H]1CCCN1C(=O)[C@@H]1CCCN1C(=O)CNC(=O)[C@@H]1CCC(=O)N1)[C@@H](C)CC)[C@@H](C)CC)C(C)C)[C@@H](C)CC)[C@@H](C)CC)[C@@H](C)O)C(N)=O` [compound 361], the EC50 on CRF1R was determined as 149 nM; on CRF2R, 6.37 nM. Besides, the Emax on CRF1R was found to be 100%; on CRF2R, 99%.

As to `CC[C@H](C)[C@H](NC(=O)[C@@H](NC(=O)[C@H](CC(=O)O)NC(=O)[C@H](CC(C)C)NC(=O)[C@H](CC(C)C)NC(=O)[C@H](CC(C)C)NC(=O)[C@H](CCCNC(=N)N)NC(=O)[C@H](CC(N)=O)NC(=O)[C@H](CC(N)=O)NC(=O)[C@H](C)NC(=O)[C@H](C)NC(=O)[C@H](CCC(N)=O)NC(=O)[C@H](CCC(N)=O)NC(=O)[C@H](CCCCN)NC(=O)[C@H](CCC(=O)O)NC(=O)[C@H](CCCCN)NC(=O)[C@H](CCC(=O)O)NC(=O)[C@H](CCC(N)=O)NC(=O)[C@H](CCCCN)NC(=O)[C@H](CCC(=O)O)NC(=O)[C@@H](NC(=O)[C@H](CCC(=O)O)NC(=O)[C@@H](NC(=O)[C@@H](NC(=O)[C@H](CCCCN)NC(=O)[C@H](CCCNC(=N)N)NC(=O)[C@H](CC(C)C)NC(=O)[C@H](CC(C)C)NC(=O)[C@H](CCC(N)=O)NC(=O)[C@H](Cc1ccc(O)cc1)NC(=O)[C@@H]1CCCN1C(=O)[C@H](CC(C)C)NC(=O)[C@H](CC(=O)O)NC(=O)[C@@H](NC(=O)[C@H](CO)NC(=O)[C@@H](NC(=O)[C@@H]1CCCN1C(=O)[C@@H]1CCCN1C(=O)CNC(=O)[C@@H]1CCC(=O)N1)[C@@H](C)CC)[C@@H](C)CC)C(C)C)[C@@H](C)CC)[C@@H](C)CC)[C@@H](C)O)C(N)=O` [compound 283], the figures for the Emax at CRF1R and on CRF2R were 100% and 72%, respectively.

For `CC[C@H](C)[C@H](NC(=O)[C@@H](NC(=O)[C@H](CC(=O)O)NC(=O)[C@H](CC(C)C)NC(=O)[C@H](CC(C)C)NC(=O)[C@H](CC(C)C)NC(=O)[C@H](CCCNC(=N)N)NC(=O)[C@H](CC(N)=O)NC(=O)[C@H](CC(N)=O)NC(=O)[C@H](C)NC(=O)[C@H](C)NC(=O)[C@H](CCC(N)=O)NC(=O)[C@H](CCC(N)=O)NC(=O)[C@H](CCCCN)NC(=O)[C@H](CCC(=O)O)NC(=O)[C@H](CCCCN)NC(=O)[C@H](CCC(=O)O)NC(=O)[C@H](CCC(N)=O)NC(=O)[C@H](CCCCN)NC(=O)[C@H](CCC(=O)O)NC(=O)[C@@H](NC(=O)[C@H](CCC(=O)O)NC(=O)[C@@H](NC(=O)[C@H](CCSC)NC(=O)[C@H](CCCCN)NC(=O)[C@H](CCCNC(=N)N)NC(=O)[C@H](CC(C)C)NC(=O)[C@H](CC(C)C)NC(=O)[C@H](Cc1c[nH]cn1)NC(=O)[C@@H](NC(=O)[C@@H]1CCCN1C(=O)[C@H](CC(C)C)NC(=O)[C@H](CC(=O)O)NC(=O)[C@@H](NC(=O)[C@H](CO)NC(=O)[C@@H](NC(=O)[C@@H]1CCCN1C(=O)[C@@H]1CCCN1C(=O)CNC(=O)[C@@H]1CCC(=O)N1)[C@@H](C)CC)[C@@H](C)CC)[C@@H](C)CC)[C@@H](C)CC)[C@@H](C)CC)[C@@H](C)O)C(N)=O` [compound 77], the Emax came to 5% at CRF1R and 100% at CRF2R.

Consider `CC[C@H](C)[C@H](NC(=O)[C@@H](NC(=O)[C@H](CC(=O)O)NC(=O)[C@H](CC(C)C)NC(=O)[C@H](CC(C)C)NC(=O)[C@H](CC(C)C)NC(=O)[C@H](CCCNC(=N)N)NC(=O)[C@H](CC(N)=O)NC(=O)[C@H](CC(N)=O)NC(=O)[C@H](C)NC(=O)[C@H](C)NC(=O)[C@H](CCC(N)=O)NC(=O)[C@H](CCC(N)=O)NC(=O)[C@H](CCCCN)NC(=O)[C@H](CCC(=O)O)NC(=O)[C@H](CCCCN)NC(=O)[C@H](CCC(=O)O)NC(=O)[C@H](CCC(N)=O)NC(=O)[C@H](CCCCN)NC(=O)[C@H](CCC(=O)O)NC(=O)[C@@H](NC(=O)[C@H](CCC(=O)O)NC(=O)[C@@H](NC(=O)[C@H](CCSC)NC(=O)[C@H](CCCCN)NC(=O)[C@H](CCCNC(=N)N)NC(=O)[C@H](CC(C)C)NC(=O)[C@H](CC(C)C)NC(=O)[C@H](Cc1ccc(O)cc1)NC(=O)[C@H](CCC(N)=O)NC(=O)[C@@H]1CCCN1C(=O)[C@H](CC(C)C)NC(=O)[C@H](CC(=O)O)NC(=O)[C@@H](NC(=O)[C@H](CO)NC(=O)[C@@H](NC(=O)[C@@H]1CCCN1C(=O)[C@@H]1CCCN1C(=O)CNC(=O)[C@@H]1CCC(=O)N1)[C@@H](C)CC)[C@@H](C)CC)[C@@H](C)CC)[C@@H](C)CC)[C@@H](C)O)C(N)=O` [compound 27], for which the Emax on CRF1R came out at 100%; on CRF2R, 96%.

Regarding `CC[C@H](C)[C@H](NC(=O)[C@@H](NC(=O)[C@H](CC(=O)O)NC(=O)[C@H](CC(C)C)NC(=O)[C@H](CC(C)C)NC(=O)[C@H](CC(C)C)NC(=O)[C@H](C)NC(=O)[C@H](CC(N)=O)NC(=O)[C@H](CC(N)=O)NC(=O)[C@H](C)NC(=O)[C@H](C)NC(=O)[C@H](CCC(N)=O)NC(=O)[C@H](CCC(N)=O)NC(=O)[C@H](CCCCN)NC(=O)[C@H](CCC(=O)O)NC(=O)[C@H](CCCCN)NC(=O)[C@H](CCC(=O)O)NC(=O)[C@H](CCC(N)=O)NC(=O)[C@H](CCCCN)NC(=O)[C@H](CCC(=O)O)NC(=O)[C@@H](NC(=O)[C@H](CCC(=O)O)NC(=O)[C@@H](NC(=O)[C@H](CCSC)NC(=O)[C@H](CCCCN)NC(=O)[C@H](CCCNC(=N)N)NC(=O)[C@H](CC(C)C)NC(=O)[C@H](CC(C)C)NC(=O)[C@H](Cc1c[nH]cn1)NC(=O)[C@H](Cc1ccc(O)cc1)NC(=O)[C@@H]1CCCN1C(=O)[C@H](CC(C)C)NC(=O)[C@H](CC(=O)O)NC(=O)[C@@H](NC(=O)[C@H](CO)NC(=O)[C@@H](NC(=O)[C@@H]1CCCN1C(=O)[C@@H]1CCCN1C(=O)CNC(=O)[C@@H]1CCC(=O)N1)[C@@H](C)CC)[C@@H](C)CC)[C@@H](C)CC)[C@@H](C)CC)[C@@H](C)O)C(N)=O` [compound 314], at CRF1R, the EC50 turned out to be 979 nM and the Emax was determined as 82.4%. Also, on CRF2R, the EC50 came out at 10.3 nM and the Emax came to 99.8%.

By Emax is commonly meant the maximal effect, on the per cent scale that the assay sets. In general, EC50 refers to the concentration giving half of the maximal effect. The low end stands for an effect from little substance, the high end for a need for much substance.
